Reference: patent US7348426B1, “Substituted bicyclic heterocycles, process for their preparation and their use as antiobesity and hypocholesterolemic agents” (Dr. Reddy's Laboraties Limited, priority 1999, dated 2008)

Assays:
[1] = test system: hypercholesterolemic Sprague Dawley rats; details: 1 mg/kg orally for 3 days
[2] = test system: cholesterol fed Syrian Hamsters; assay: Body weight reducing effect in cholesterol fed hamsters; assay type: in vivo; details: 10 mg/kg/day orally for 15 days

Substance: (±) 3-[4-[2-Dihydro-1,4-benzoxazin-4-yl)ethoxy]phenyl]-2-ethoxypropanoic acid, sodium salt
- HDL (%) ↑ increase [1]: 37%
- Total Cholesterol (%) ↓ reduction [1]: 57%
- Triglyceride (%) ↓ reduction [1]: 43%
- LDL (%) ↓ reduction ([1]; LDL calculated from total cholesterol, HDL and triglyceride): 58%
- VLDL (%) ↓ reduction ([1]; VLDL calculated from total cholesterol, HDL and triglyceride): 79%
- Body weight Reduction (%) [2]: 12%
